Laboratory results published in US7115624B1, “Method of inhibiting protein tyrosine phosphatase 1B and/or T-cell protein tyrosine phosphatase 4 and/or other PTPases with an Asp residue at position 48” (Novo Nordisk A/S, priority 1999, dated 2006).
Values joined by “and” are separate entries in the source; they are usually repeats but may differ in a detail not shown here. Identical values can stand only once.

Protein sequences, listed by entry. Tags and fused reporters are not part of them. Residues count along the entry.
UniProt P23467, 1703-1963 limits assumed: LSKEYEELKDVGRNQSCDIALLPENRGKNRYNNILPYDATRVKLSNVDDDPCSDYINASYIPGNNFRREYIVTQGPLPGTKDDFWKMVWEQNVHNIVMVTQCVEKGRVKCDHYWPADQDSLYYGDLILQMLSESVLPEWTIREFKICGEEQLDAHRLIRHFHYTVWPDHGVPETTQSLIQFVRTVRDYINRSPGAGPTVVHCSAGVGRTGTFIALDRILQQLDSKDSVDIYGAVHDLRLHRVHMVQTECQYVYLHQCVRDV

Legend:
Assay in all cases: PTPase inhibition, p-nitrophenyl phosphate substrate, Ki
Assay type in all cases: biochemical
[1] = molecular target: T1, PTP1B (Homo sapiens, UniProt P18031)
T1 sequence (P18031 1-321): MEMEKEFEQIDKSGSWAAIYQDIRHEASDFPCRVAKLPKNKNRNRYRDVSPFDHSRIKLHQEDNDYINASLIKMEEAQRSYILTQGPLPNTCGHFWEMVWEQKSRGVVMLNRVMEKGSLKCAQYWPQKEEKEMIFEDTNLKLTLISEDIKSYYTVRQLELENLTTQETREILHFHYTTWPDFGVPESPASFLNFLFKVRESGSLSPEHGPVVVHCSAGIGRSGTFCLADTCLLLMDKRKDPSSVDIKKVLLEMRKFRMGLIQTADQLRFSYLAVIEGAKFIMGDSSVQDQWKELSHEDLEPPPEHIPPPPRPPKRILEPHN

[2] = molecular target: PTPβ (Homo sapiens, UniProt P23467)
[3] = molecular target: T2, CD45 (Homo sapiens, UniProt P08575); conditions: pH 5.5
T2 sequence (P08575 599-1306 limits assumed): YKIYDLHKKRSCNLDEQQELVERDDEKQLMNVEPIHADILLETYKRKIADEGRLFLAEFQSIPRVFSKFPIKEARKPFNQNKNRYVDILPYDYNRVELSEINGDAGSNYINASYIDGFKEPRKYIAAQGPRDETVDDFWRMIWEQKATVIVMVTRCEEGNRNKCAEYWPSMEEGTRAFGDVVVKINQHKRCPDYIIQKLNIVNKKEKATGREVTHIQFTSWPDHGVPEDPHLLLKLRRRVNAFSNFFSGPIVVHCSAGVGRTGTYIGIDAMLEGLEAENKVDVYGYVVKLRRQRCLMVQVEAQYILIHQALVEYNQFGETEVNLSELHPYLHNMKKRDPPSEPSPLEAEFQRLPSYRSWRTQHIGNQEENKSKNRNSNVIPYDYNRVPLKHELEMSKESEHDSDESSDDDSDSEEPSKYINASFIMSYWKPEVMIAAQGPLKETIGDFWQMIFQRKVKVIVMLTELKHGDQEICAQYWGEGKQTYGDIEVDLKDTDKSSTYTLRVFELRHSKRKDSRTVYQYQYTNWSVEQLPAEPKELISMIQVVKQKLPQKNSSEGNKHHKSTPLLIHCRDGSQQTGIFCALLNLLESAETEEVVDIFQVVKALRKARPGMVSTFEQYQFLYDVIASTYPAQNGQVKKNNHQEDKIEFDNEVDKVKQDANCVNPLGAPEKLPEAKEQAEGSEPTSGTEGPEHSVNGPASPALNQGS

| Ki [1] | Ki [2] | fold increase of affinity for PTP1B ([1]; pH 5.5) | fold decrease of potency against CD45 [3] [fold] | Compound |
| --- | --- | --- | --- | --- |
| 15 µM and 63 µM | 12 µM and 17 µM |  |  | O=C(O)C(=O)Nc1sc2c(c1C(=O)O)CCOC2 [Example 2-OTPA, 2-(Oxalyl-amino)-4,7-dihydro-thieno[2,3-c]pyran-3-carboxylic acid] |
|  |  | about 20 fold | 2 | O=C(O)C(=O)Nc1sc2c(c1C(=O)O)CCNC2 [Example 2-OTPyA, 2-(Oxalyl-amino)-4,5,6,7-tetrahydro-thieno[2,3-c]pyridine-3-carboxylic acid] |
